Experimental data: patent US9682990B2, “Alcohol-, diol-, and carbohydrate-substituted indenoisoquinolines as topoisomerase I inhibitors” (Purdue Research Foundation, priority 2011, dated 2017)

Target: T1, Human recombinant Top1 (Homo sapiens, UniProt P11387)
T1 sequence (P11387 1-765): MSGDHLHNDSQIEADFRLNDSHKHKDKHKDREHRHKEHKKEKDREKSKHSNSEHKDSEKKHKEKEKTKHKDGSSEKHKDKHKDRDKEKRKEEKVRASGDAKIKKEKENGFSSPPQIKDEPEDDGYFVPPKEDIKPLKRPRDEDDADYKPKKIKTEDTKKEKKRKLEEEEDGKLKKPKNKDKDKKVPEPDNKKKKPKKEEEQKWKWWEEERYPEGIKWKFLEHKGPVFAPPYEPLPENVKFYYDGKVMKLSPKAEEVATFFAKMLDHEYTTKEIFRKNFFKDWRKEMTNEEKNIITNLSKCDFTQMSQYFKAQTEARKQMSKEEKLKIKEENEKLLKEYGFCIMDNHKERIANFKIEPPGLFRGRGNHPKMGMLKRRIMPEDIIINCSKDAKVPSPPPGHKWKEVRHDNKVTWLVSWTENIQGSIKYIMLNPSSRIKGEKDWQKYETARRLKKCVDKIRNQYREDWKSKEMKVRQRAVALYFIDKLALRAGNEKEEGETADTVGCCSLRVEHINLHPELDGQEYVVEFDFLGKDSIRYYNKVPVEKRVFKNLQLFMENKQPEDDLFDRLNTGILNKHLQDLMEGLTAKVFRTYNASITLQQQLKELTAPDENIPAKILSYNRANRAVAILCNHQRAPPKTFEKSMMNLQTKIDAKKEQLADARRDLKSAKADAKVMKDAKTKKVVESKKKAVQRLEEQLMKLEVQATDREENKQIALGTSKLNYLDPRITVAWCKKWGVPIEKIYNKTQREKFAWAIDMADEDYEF
Test: Top1-mediated DNA cleavage assay
Settings: graded relative to 1 uM camptothecin

## O=C1c2ccccc2-c2c1c1ccccc1c(=O)n2C[C@@H](O)CO [Compound 12b, (2′R)-5,6-Dihydro-6-[(2′,3′-dihydroxypropyl)]-5,11-dioxo-11H-indeno[1,2-c]isoquinoline]
  Top1 Cleavage: 0/+

## O=C1c2ccccc2-c2c1c1ccc([N+](=O)[O-])cc1c(=O)n2C[C@H](O)CO [Compound 30, (2′S)-5,6-Dihydro-6-(2′,3′-dihydroxypropyl)-3-nitro-5,11-dioxo-11H-indeno[1,2-c]isoquinoline]
  Top1 Cleavage: ++++

## O=C1c2ccccc2-c2c1c1ccccc1c(=O)n2C[C@H](O)[C@H](O)[C@H](O)CO [Compound 17b, (2′S,3′S,4′R)-5,6-Dihydro-6-(2′,3′,4′,5′-tetrahydroxypentyl)-5,11-dioxo-11H-indeno[1,2-c]isoquinoline]
  Top1 Cleavage: 0

## C[C@@H](O)Cn1c2c(c3ccccc3c1=O)C(=O)c1ccccc1-2 [Compound 27a, (2′R)-5,6-Dihydro-6-(2′-hydroxypropyl)-5,11-dioxo-11H-indeno[1,2-c]isoquinoline]
  Top1 Cleavage: +++ (+++, between 75% and 95% activity)

## COc1cc2c3c(n(C[C@H](O)CO)c(=O)c2cc1OC)-c1ccccc1C3=O [Compound 29, (2′S)-5,6-Dihydro-6-(2′,3′-dihydroxypropyl)-2,3-dimethoxy-5,11-dioxo-11H-indeno[1,2-c]isoquinoline]
  Top1 Cleavage: +++ (+++, between 75% and 95% activity)

## O=C1c2ccccc2-c2c1c1ccccc1c(=O)n2C[C@H](O)[C@@H](O)[C@H](O)CO [Compound 17d, (2′S,3′R,4′R)-5,6-Dihydro-6-(2′,3′,4′,5′-tetrahydroxypentyl)-5,11-dioxo-11H-indeno[1,2-c]isoquinoline]
  Top1 Cleavage: ++ (++, between 50 and 75% activity)

## C[C@H](O)Cn1c2c(c3ccccc3c1=O)C(=O)c1ccccc1-2 [Compound 27b, (2′S)-5,6-Dihydro-6-(2′-hydroxypropyl)-5,11-dioxo-11H-indeno[1,2-c]isoquinoline]
  Top1 Cleavage: +++ (+++, between 75% and 95% activity)

## O=C1c2ccccc2-c2c1c1ccc([N+](=O)[O-])cc1c(=O)n2C[C@H](O)[C@@H](O)[C@H](O)[C@H](O)CO [Compound 19, (2′S,3′R,4′R,5′R)-5,6-Dihydro-6-(2′,3′,4′,5′,6′-pentahydroxyhexyl)-3-nitro-5,11-dioxo-11H-indeno[1,2-c]isoquinoline]
  Top1 Cleavage: ++++

## O=C1c2ccccc2-c2c1c1ccccc1c(=O)n2CC(O)CO (racemic) [Compound 12c, (2′RS)-5,6-Dihydro-6-[(2′,3′-dihydroxypropyl)]-5,11-dioxo-11H-indeno[1,2-c]isoquinoline]
  Top1 Cleavage: ++ (++, between 50 and 75% activity)

## O=C(CO)Cn1c2c(c3ccccc3c1=O)C(=O)c1ccccc1-2 [Compound 25, 5,6-Dihydro-6-(3′-hydroxy-2′-oxopropyl)-5,11-dioxo-11H-indeno[1,2-c]isoquinoline]
  Top1 Cleavage: + (+, between 20 and 50% activity)

## O=C1c2ccccc2-c2c1c1ccccc1c(=O)n2C[C@@H](O)[C@@H](O)[C@H](O)[C@H](O)CO [Compound 17f, (2′R, 3′R, 4′R, 5′R)-5,6-Dihydro-6-(2′,3′,4′,5′,6′-pentahydroxyhexyl)-5,11-dioxo-11H-indeno[1,2-c]isoquinoline]
  Top1 Cleavage: + (+, between 20 and 50% activity)

## C[C@H](O)Cn1c2c(c3ccccc3c1=O)C(=O)c1ccccc1-2 [Compound 27c, (2′RS)-5,6-Dihydro-6-(2′-hydroxypropyl)-5,11-dioxo-11H-indeno[1,2-c]isoquinoline]
  Top1 Cleavage: + (+, between 20 and 50% activity)

## O=C1c2ccccc2-c2c1c1ccccc1c(=O)n2C[C@H](O)[C@@H](O)[C@H](O)[C@H](O)CO [Compound 17c, (2′S,3′R,4′R,5′R)-5,6-Dihydro-6-(2′,3′,4′,5′,6′-pentahydroxyhexyl)-5,11-dioxo-11H-indeno[1,2-c]isoquinoline]
  Top1 Cleavage: ++ (++, between 50 and 75% activity)

## CC[C@H](O)n1c2c(c3ccccc3c1=O)C(=O)c1ccccc1-2 [Compound 22a, (1′S)-5,6-Dihydro-6-(1′-hydroxy-2′-methylethyl)-5,11-dioxo-11H-indeno[1,2-c]isoquinoline]
  Top1 Cleavage: ++ (++, between 50 and 75% activity)

## O=C1c2ccccc2-c2c1c1ccccc1c(=O)n2C[C@H](O)CO [Compound 12a, (2′S)-5,6-Dihydro-6-[(2′,3′-dihydroxypropyl)]-5,11-dioxo-11H-indeno[1,2-c]isoquinoline]
  Top1 Cleavage: +++ (+++, between 75% and 95% activity)

## O=C1c2ccccc2-c2c1c1ccccc1c(=O)n2C[C@@H](O)[C@@H](O)[C@H](O)CO [Compound 17e, (2′R,3′R,4′R)-5,6-Dihydro-6-(2′,3′,4′,5′-tetrahydroxypentyl)-5,11-dioxo-11H-indeno[1,2-c]isoquinoline]
  Top1 Cleavage: +++ (+++, between 75% and 95% activity)

## (1′R)-5,6-Dihydro-6-(3′-hydroxy-1′-methylethyl)-5,11-dioxo-11H-indeno[1,2-c]isoquinoline [Compound 22b]
  Top1 Cleavage: + (+, between 20 and 50% activity)

## O=C1c2ccccc2-c2c1c1ccccc1c(=O)n2C[C@H](O)[C@@H](O)[C@@H](O)CO [Compound 17g, (2′S,3′R,4′S,5′R)-5,6-Dihydro-6-(2′,3′,4′,5′-tetrahydroxypentyl)-5,11-dioxo-11H-indeno[1,2-c]isoquinoline]
  Top1 Cleavage: + (+, between 20 and 50% activity)

## (1′RS)-5,6-Dihydro-6-(3′-hydroxy-2′-methylethyl)-5,11-dioxo-11H-indeno[1,2-c]isoquinoline [Compound 22c]
  Top1 Cleavage: + (+, between 20 and 50% activity)

## NC[C@H](O)Cn1c2c(c3ccccc3c1=O)C(=O)c1ccccc1-2 [Compound 27d, (2′RS)-5,6-Dihydro-6-(3′-amino-2′-hydroxypropyl)-5,11-dioxo-11H-indeno[1,2-c]isoquinoline]
  Top1 Cleavage: ++ (++, between 50 and 75% activity)

## O=C1c2ccccc2-c2c1c1ccccc1c(=O)n2C[C@@H](O)[C@H](O)[C@H](O)CO [Compound 17a, (2′R, 3′S, 4′R)-5,6-Dihydro-6-(2′,3′,4′,5′-tetrahydroxypentyl)-5,11-dioxo-11H-indeno[1,2-c]isoquinoline]
  Top1 Cleavage: ++ (++, between 50 and 75% activity)
